This is an account of results in PubChem BioAssay AID2528 (National Center for Advancing Translational Sciences (NCATS), 2010).

Sequences of proteins named here, by UniProt entry; tags and fusion partners are left off. A change or cut given only in a name is not applied to a line headed by its entry.
UniProt P54132: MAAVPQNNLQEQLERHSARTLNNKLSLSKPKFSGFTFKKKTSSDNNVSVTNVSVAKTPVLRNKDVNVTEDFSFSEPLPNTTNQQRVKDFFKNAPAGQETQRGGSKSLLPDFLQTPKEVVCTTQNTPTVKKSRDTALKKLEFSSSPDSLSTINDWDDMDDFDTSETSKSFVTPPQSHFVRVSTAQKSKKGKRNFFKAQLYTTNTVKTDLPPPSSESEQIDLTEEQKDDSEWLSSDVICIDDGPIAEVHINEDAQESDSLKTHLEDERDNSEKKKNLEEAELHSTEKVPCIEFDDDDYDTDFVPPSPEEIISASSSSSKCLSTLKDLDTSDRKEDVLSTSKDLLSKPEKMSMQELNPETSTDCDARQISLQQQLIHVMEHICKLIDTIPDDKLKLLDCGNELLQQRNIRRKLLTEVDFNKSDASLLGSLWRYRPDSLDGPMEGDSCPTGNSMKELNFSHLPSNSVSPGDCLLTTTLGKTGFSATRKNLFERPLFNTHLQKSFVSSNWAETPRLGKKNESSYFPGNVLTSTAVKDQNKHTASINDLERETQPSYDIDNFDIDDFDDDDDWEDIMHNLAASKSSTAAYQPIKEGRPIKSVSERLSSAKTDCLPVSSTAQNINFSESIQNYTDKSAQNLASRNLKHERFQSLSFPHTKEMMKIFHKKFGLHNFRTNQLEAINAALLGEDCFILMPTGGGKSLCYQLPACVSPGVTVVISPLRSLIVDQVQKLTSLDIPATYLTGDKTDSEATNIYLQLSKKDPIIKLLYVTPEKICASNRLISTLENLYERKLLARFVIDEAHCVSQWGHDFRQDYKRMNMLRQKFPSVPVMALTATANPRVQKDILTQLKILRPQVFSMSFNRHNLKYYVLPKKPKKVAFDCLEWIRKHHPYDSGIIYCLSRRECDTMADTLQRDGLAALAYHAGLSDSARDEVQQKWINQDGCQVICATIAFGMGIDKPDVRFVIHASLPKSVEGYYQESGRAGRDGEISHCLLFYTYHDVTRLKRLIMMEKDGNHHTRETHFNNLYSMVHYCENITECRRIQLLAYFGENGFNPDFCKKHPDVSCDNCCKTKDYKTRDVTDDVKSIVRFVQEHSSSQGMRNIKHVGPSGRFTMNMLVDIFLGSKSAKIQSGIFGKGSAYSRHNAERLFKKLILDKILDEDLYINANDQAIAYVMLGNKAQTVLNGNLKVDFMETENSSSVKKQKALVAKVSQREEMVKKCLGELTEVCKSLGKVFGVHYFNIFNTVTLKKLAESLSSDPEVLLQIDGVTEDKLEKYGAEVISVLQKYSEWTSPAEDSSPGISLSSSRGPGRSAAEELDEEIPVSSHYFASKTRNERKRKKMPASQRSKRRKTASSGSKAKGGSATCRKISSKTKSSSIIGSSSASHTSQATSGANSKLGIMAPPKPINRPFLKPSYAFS

Values joined by “and” are separate entries in the source; they are usually repeats but may differ in a detail not shown here. Equal values may be shown once. Only a part is listed here, and it is no random draw. Active and inactive are the calls of the source. Calls follow the shape of the dose curve; as a rule, active = well fitted inhibition curve with a large enough effect; inconclusive = small, poorly fitted or top-dose-only effect; inactive = flat fitted curve, though single readings scatter.

The assay has as its target RecQ-like DNA helicase BLM (Homo sapiens) (UniProt P54132). Kind of assay: qHTS Assay for Inhibitors of Bloom's syndrome helicase (BLM).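 Also: plate controls were vehicle for no effect and no enzyme for full effect; nearly all actives have a fitted effect of over 35% in size.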 The note with it: recombinant BLM DNA unwinding, fluorescence dequenching; at 56.1 µM (top of the series) unless noted.
For the compound `Cc1ccc(OP(=O)(Nc2nccs2)Oc2ccc(C)cc2)cc1`, the activity change, negative = inhibition is inactive: -3.21%.

Turning to `CN1CCCC(OC(=O)C(c2ccccc2)c2ccccc2)C1` (stereo not given), the activity change, negative = inhibition was inactive: 2.94%.

As for `Clc1ccc(Cl)c(NC2=NCC(CBr)S2)c1` (stereo not given), the activity change, negative = inhibition was inactive: -18.6%.

With `NC(=O)c1cc([N+](=O)[O-])cc([N+](=O)[O-])c1N`, the activity change, negative = inhibition was inactive: -11.1%.

Regarding `Cc1ccc(N/C(=N/P(=O)(N2CCOCC2)N2CCOCC2)N2CCOCC2)cc1`, the activity change, negative = inhibition is inactive: -0.565%.

In the case of `Nc1cc(N)c2nonc2c1[N+](=O)[O-]`, the activity change, negative = inhibition is inactive: -4.41%.

For the compound `CC(C)CC(=O)NC(Sc1ccc(Cl)cc1)C(Cl)(Cl)Cl` (stereo not given), the activity change, negative = inhibition is inactive: -4.56%.

Consider `Oc1ccccc1CNc1ccccn1`, for which the activity change, negative = inhibition is inactive: 1.04%.

`O=C(NC(Sc1ccncn1)C(Cl)(Cl)Cl)c1ccccc1` (stereo not given): the activity change, negative = inhibition was inactive: 1.47%.

With `Cc1c2non([O-])c-2c(C)[n+](=O)[n+]1[O-]`, the activity change, negative = inhibition is inactive: -6.08%.

For `CC(C)(C)C(=O)NC(Sc1ccccc1)C(Cl)(Cl)Cl` (stereo not given), the activity change, negative = inhibition was inactive: -3.42%.

Regarding `O=P1(Nc2nc3ccc(Cl)cc3s2)COc2ccccc2O1` (stereo not given), the activity change, negative = inhibition was inactive: 0.605%.

`CCOc1ccc(C2=NCC(CBr)S2)cc1` (stereo not given): the activity change, negative = inhibition was inactive: -3.2%.

As for `CC(=O)Nc1ccc([As](=O)(O)O)c(O)c1`, the activity change, negative = inhibition is inactive: -8.75%.

Take `CC(=O)Nc1ccc(Oc2c([N+](=O)[O-])cc([N+](=O)[O-])cc2[N+](=O)[O-])cc1`: the activity change, negative = inhibition was inactive: -11.8%.

Turning to `CC(=O)c1ccc(N2CC2c2ccncc2)cc1` (stereo not given), the activity change, negative = inhibition was inactive: 0.231%.

Turning to `C[C@H]1OP(=O)(Oc2ccccc2)C[C@@H]2O[C@@H]21` (stereo not given in full), the activity change, negative = inhibition was inactive: 0.981%.

Turning to `C[C@@H]1C=CCP(=O)(Oc2ccccc2)O1` (stereo not given in full), the activity change, negative = inhibition was inactive: 2.37%.

On to `O=C(NC1CCS(=O)(=O)C1)NP(=S)(Oc1ccccc1)Oc1ccccc1` (stereo not given), for which the activity change, negative = inhibition was inactive: -3.71%.

Turning to `CCNC(=S)/N=C(\N)N[N+](=O)[O-]`, the activity change, negative = inhibition is inactive: -3.56%.

For `c1ccc(-c2nn[nH]n2)c(-c2nn[nH]n2)c1`, the activity change, negative = inhibition is inactive: -6.87%.

On to `CCOC(=O)NC(Sc1ccccc1)C(Cl)(Cl)Cl` (stereo not given), for which the activity change, negative = inhibition was inactive: -3.96%.

On to `Cc1ccc(NP(=O)(Oc2cccc(C)c2)Oc2cccc(C)c2)nc1`, for which the activity change, negative = inhibition was inactive: -1.46%.

In the case of `Cc1ccccc1OP(=O)(Nc1ccccn1)Oc1ccccc1C`, the activity change, negative = inhibition was inactive: -2.37%.

With `O=c1c2cc([N+](=O)[O-])ccc2[nH]c2c([N+](=O)[O-])cc([N+](=O)[O-])cc12`, the activity change, negative = inhibition is inactive: -1.62%.

As for `CN(C)C(=O)Oc1noc2ccccc12`, the activity change, negative = inhibition is inactive: -2.78%.

Regarding `COC(=O)c1cc2c(s1)N=C(c1ccccc1)N(C)P2(=O)N1CCOCC1` (stereo not given), the activity change, negative = inhibition is inactive: -3.98%.

`Cc1ccc(OP(=O)(Nc2ccccn2)Oc2ccc(C)cc2)cc1`: the activity change, negative = inhibition is inactive: -7.54%.

Turning to `CC(=O)NC(SC(=S)N(CC(C)C)CC(C)C)C(Cl)(Cl)Cl` (stereo not given), the activity change, negative = inhibition was inactive: 0.0335%.

With `O=C(OC1CN2CCC1CC2)c1ccccc1` (stereo not given), the activity change, negative = inhibition is inactive: 2.01% and inactive: 2.99%.

Regarding `CCC(=O)N1C2C3N(C(=O)CC)C1C1N(C(=O)CC)C(C(N1C(=O)CC)N3C(=O)CC)N2C(=O)CC`, the activity change, negative = inhibition was inactive: -0.659%.

`O=P(Nc1nc2ccccc2s1)(c1ccccc1)c1ccccc1`: the activity change, negative = inhibition was inactive: -2.9%.

In the case of `C[C@H]1OP(=O)(Oc2ccccc2)[C@H](O)[C@H](O)[C@H]1N=[N+]=[N-]` (stereo not given in full), the activity change, negative = inhibition was inactive: -0.663%.

With `CN(C)C1(CNC(=O)c2ccc(Cl)c(S(N)(=O)=O)c2)CCCCC1`, the activity change, negative = inhibition is inactive: -1.99%.

`O=P(Nc1ccccn1)(c1ccc(Br)cc1)c1ccc(Br)cc1`: the activity change, negative = inhibition is inactive: -10.3%.

Consider `C(Cc1nn[nH]n1)Cc1nn[nH]n1`, for which the activity change, negative = inhibition was inactive: 1.17%.

As for `Nc1ccc([As](=O)(O)c2ccc([N+](=O)[O-])cc2)cc1`, the activity change, negative = inhibition was inactive: -7.36%.

As for `O=C(OC1CN2CCC1CC2)c1cccc(Cl)c1` (stereo not given), the activity change, negative = inhibition is inactive: 0.791%.

Turning to `O=[N+]([O-])c1ncn(CCn2cnc([N+](=O)[O-])n2)n1`, the activity change, negative = inhibition was inactive: -7.01%.

As to `CC(=O)NC(SC(=S)N(C)C)C(Cl)(Cl)Cl` (stereo not given), the activity change, negative = inhibition is inactive: -7.89%.

Turning to `O=[N+]([O-])c1ccc(O)c(/C=N/Nc2ccc([N+](=O)[O-])cc2[N+](=O)[O-])c1`, the activity change, negative = inhibition was inactive: -9.15%.

Take `O=[As](O)(c1ccccc1)c1ccc(O)cc1`: the activity change, negative = inhibition is inactive: -2.69%.

Turning to `CCC(C)(OOC(C)(C)C)OOC(C)(C)C`, the activity change, negative = inhibition was inactive: 2.78%.

As for `c1nnnn1CCn1cnnn1`, the activity change, negative = inhibition was inactive: -0.125%.

As to `O=P(Nc1nccs1)(c1ccccc1)c1ccccc1`, the activity change, negative = inhibition is inactive: -1.23%.

On to `CC(C)C(=O)NC(Sc1ccccc1)C(Cl)(Cl)Cl` (stereo not given), for which the activity change, negative = inhibition was inactive: 3.12%.

On to `Clc1n[nH]nc1-c1nn[nH][15n]1`, for which the activity change, negative = inhibition was inactive: 1.88%.

Take `CC(C)(C)C(=O)NC(Sc1ncccn1)C(Cl)(Cl)Cl` (stereo not given): the activity change, negative = inhibition is inactive: -0.197%.

On to `CCOP(=O)(Nc1ccc(C)cn1)OCC`, for which the activity change, negative = inhibition was inactive: -1.13%.

As for `CCC1=CC2Cc3nc4ccc(Cl)cc4c(N)c3C(C1)C2` (stereo not given), the activity change, negative = inhibition is inactive: 6.01%.

In the case of `O=P1(Nc2ccccn2)COc2ccccc2OC1`, the activity change, negative = inhibition was inactive: -1.15%.

`CCOP(=O)(NC(=NC(C)c1ccccc1)NC(C)c1ccccc1)OCC` (stereo not given): the activity change, negative = inhibition was inactive: -4.42%.

Regarding `O=[As](O)(c1ccccc1Br)c1ccccc1Br`, the activity change, negative = inhibition is inactive: -5.46%.

With `CN(C(=O)Cc1ccc(Cl)c(Cl)c1)[C@@H]1CCCC[C@H]1N1CCCC1`, the activity change, negative = inhibition is inactive: -6.65%.

With `CC(C)/C=N\N=C(\N)N[N+](=O)[O-]`, the activity change, negative = inhibition is inactive: -3.88%.

With `O=C(/C=C/c1ccccc1)OC1CN2CCC1CC2` (stereo not given), the activity change, negative = inhibition was inactive: 12%.

Take `CN(C)C1(CNC(=O)c2ccc(S(C)(=O)=O)cc2)CCCCC1`: the activity change, negative = inhibition is inactive: 0.606%.

In the case of `Cc1nn(-c2ccccc2)c2c1P(=O)(N1CCOCC1)N(C)C(c1ccccc1)=N2` (stereo not given), the activity change, negative = inhibition was inactive: -6.32%.

For `Cc1ccc(C(=O)OC2CN3CCC2CC3)cc1` (stereo not given), the activity change, negative = inhibition was inactive: 2.1%.

As for `CC1CCC(C(C)C)C(OP(=O)(Nc2ccccn2)c2ccccc2)C1` (stereo not given), the activity change, negative = inhibition is inactive: -10.3%.

Take `O=[As](O)(c1cccs1)c1cccs1`: the activity change, negative = inhibition is inactive: -6.65%.

Consider `Cc1ccc(OCC(=O)OC2CN3CCC2CC3)cc1` (stereo not given), for which the activity change, negative = inhibition was inactive: 0.482%.

On to `O=P1(Nc2ccc(Br)cn2)COc2ccccc2OC1`, for which the activity change, negative = inhibition was inactive: 1.31%.

In the case of `Nc1cccc([As](=O)(O)c2ccccc2)c1`, the activity change, negative = inhibition is inactive: -2.13%.

`O=P1(Nc2ncccn2)COc2ccccc2OC1`: the activity change, negative = inhibition was inactive: 1.56%.
